Each structure is given as a SMILES string. The list shows a part of the results, in another mix than the full data. Some results for these compounds are left out of this collection, so the calls shown say nothing about other tests. Results filed as inconclusive are left out. The source made the active and inactive calls. The call rests on the fitted dose curve; in most records, active means well fitted inhibition curve with a large enough effect; inconclusive means small, poorly fitted or top-dose-only effect; inactive means flat fitted curve, though single readings scatter.

The chains behind the UniProt entries cited, without tags or fusion partners.
UniProt P51570, whole entry: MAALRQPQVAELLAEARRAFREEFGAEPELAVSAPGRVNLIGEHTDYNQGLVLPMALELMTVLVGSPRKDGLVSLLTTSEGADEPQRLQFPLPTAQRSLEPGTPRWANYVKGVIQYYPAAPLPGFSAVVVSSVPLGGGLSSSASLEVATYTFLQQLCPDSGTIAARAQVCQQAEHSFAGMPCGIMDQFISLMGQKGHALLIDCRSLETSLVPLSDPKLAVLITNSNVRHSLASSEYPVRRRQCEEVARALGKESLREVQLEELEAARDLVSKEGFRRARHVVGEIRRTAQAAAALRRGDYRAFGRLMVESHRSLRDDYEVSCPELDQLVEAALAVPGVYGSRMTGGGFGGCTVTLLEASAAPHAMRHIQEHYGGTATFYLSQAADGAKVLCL

The values that follow come from PubChem BioAssay AID720664 (National Center for Advancing Translational Sciences (NCATS), 2013).

This assay has as its target Galactokinase (Homo sapiens) (UniProt P51570). The experiment in a line: qHTS for Inhibitors of Human Galactokinase (GALK): SAR round 3. To be noted: ADP detection luminescence, 1 h; at 57.5 µM (top of the series). The text has this: Inherited deficiency of galactose-1-phosphate uridyltransferase (GALT) can result in a potentially lethal disorder called Classic Galactosemia (OMIM 230400). Several lines of evidence indicate that an elevated level of galactose-1-phosphate (gal-1-p), the product of galactokinase (GALK), is a major, if not sole, pathogenic mechanism in patients with classic galactosemia. Therefore, finding inhibitors of GALK is a potential novel therapy for this inherent metabolic disease and is the long term goal of this project. Active compounds observed in the qHTS GALK assay (AID: 1868) were cherry picked and re-screened for validation. GALK (provided by Kent Lai) was assayed using ATP and D-(+)-Galactose (Sigma-Aldrich cat# G0750) as substrates. Promega ADP-Glo technology was used to detect the ADP product formed after the kinase reaction. […]
Three uL/well of ATP-buffer solution (35 uM ATP, 20mM HEPES pH8.0, 5 mM MgCl2, 60 mM NaCl, 1 mM DTT, 0.01% BSA final concentration) was dispensed into 1536-well, assay plates (Greiner, solid white medium-binding plates) with Aurora Discovery BioRAPTR Flying Reagent Dispenser (FRD; Beckton-Dickenson). […] Luminescence was detected with the ViewLux plate reader (Perkin Elmer, Waltham, MA) after 2 min incubation using a 1 sec exposure time and 2x binning.
(In general: In qHTS, concentration-response curves come from the screen itself.)

Regarding `O=C(C1CCC1)N1CCN(C/C=C/c2ccccc2)CC1`, the activity change, negative = inhibition was inactive: 5.22%.
